Reference: article PMC9855077, “Antioxidant and Anti-Inflammatory Effects of 6,3’,4´- and 7,3´,4´-Trihydroxyflavone on 2D and 3D RAW264.7 Models” (Antioxidants, 2023)

By UniProt entry, the sequences of proteins in these tests, tags left out. Where a name states a change or a piece, a line headed by the entry shows the natural chain unless it says otherwise.
UniProt P12931: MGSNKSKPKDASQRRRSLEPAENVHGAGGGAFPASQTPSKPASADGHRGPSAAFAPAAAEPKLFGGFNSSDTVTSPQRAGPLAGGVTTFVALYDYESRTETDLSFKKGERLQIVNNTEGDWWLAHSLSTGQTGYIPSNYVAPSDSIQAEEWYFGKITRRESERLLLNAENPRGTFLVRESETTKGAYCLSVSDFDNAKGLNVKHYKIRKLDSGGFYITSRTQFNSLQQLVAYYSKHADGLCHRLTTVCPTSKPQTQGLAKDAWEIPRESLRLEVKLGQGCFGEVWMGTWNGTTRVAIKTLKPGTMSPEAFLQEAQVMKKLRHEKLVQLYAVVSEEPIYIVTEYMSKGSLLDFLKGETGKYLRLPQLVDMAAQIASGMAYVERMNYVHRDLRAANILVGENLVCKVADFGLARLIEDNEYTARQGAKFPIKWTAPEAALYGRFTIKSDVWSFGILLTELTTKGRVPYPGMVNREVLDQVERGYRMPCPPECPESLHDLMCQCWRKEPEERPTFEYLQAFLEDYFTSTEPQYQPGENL

Target: human c-Src (Homo sapiens, UniProt P12931)
Assay: biochemical

| IC50 | Structure (SMILES) |
| --- | --- |
| 20.9 µM | O=c1cc(-c2ccc(O)c(O)c2)oc2cc(O)ccc12 [7,3´,4´-HOFL] |
| 12 µM | O=c1cc(-c2ccc(O)c(O)c2)oc2ccc(O)cc12 [6,3´,4´-HOFL] |
